Consider one compound from patent publication US9320750B2, “Compositions and methods of treatment of drug resistant cancers” (priority 2012, dated 2016).

Molecules are shown by their SMILES. Entries after “also recorded” stand apart in the source; their conditions may differ.

The test system of assay [1] is BT-20 cells. Here is the method:
1×10^6 cells were seeded in a 10 cm dish 24 hr prior to the experiment. […] Following the treatment time course, cells were washed in PBS, trypsinized, and fixed in 4% paraformaldehyde (PFA) in PBS for 15 min at room temperature (RT), then resuspended in ice cold methanol and incubated overnight at −20° C. Cells were then washed twice in PBS+0.1% Tween and stained with antibodies directed against cleaved forms of caspase-3 and PARP (BD PharMingen). […] Data reported are always percent cleaved-caspase-3/cleaved-PARP double positive cells.
Following the treatment time course, cells were washed, trypsinized, fixed in 4% paraformaldehyde for 15 min at room temperature, resuspended in ice-cold methanol, and incubated overnight at −20° C. Cells were then washed twice in PBS-Tween and stained with antibodies against cleaved caspase-3 and poly(ADP-ribose) polymerase (PARP). Secondary Alexa-conjugated anti-bodies were used for visualization in a BD FacsCaliber flow cytometer.

Assay [2] deals with panel of breast cancer cell lines. The conditions noted are these: prior treatment with erlotinib (24 hr) then doxorubicin, both 10 μM.

`C#Cc1cccc(Nc2ncnc3cc(OCCOC)c(OCCOC)cc23)c1` [erlotinib]: the “cell killing relative to doxorubicin or erlotinib alone” value in assay [1] is “not enhanced”. In addition, in assay [1] (co-administered with doxorubicin instead of time-staggered doses, 8 hr), the “apoptosis on coadministration of higher erlotinib concentrations” value is recorded as “without observing increased apoptosis; also recorded: does not enhance sensitivity to doxorubicin”. Moreover, the intracellular doxorubicin concentration result in assay [2] is reported as “did not alter the intracellular doxorubicin concentration”.
